Target: 人LAG-3抗原(北京义翘神州生物技术有限公司，货号:16498-H08H) (human) (UniProt P18627)
Test: ELISA, human LAG-3 antigen coated, goat anti-human IgG-HRP

Protein sequences, listed by entry. Tags and fused reporters are not part of them. Lines headed by an entry give the natural chain unless they say otherwise; changes in a name come on top. Residues count along the entry.
UniProt P18627, 23-450 limits assumed: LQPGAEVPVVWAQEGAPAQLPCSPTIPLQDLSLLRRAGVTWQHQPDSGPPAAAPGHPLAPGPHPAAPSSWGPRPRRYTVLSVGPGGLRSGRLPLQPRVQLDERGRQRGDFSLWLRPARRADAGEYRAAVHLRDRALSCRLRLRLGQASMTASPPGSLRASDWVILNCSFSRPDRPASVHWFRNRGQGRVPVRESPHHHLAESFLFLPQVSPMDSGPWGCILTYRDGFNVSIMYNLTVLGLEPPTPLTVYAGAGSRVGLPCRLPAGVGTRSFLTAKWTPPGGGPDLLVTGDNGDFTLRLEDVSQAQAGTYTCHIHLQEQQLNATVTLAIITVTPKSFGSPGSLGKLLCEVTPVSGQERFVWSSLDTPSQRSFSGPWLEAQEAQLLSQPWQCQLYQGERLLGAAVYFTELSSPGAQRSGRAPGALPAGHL

EC50: 0.093 µg/mL
Substance: 瑞拉利单抗(Relatlimab) (antibody)

— patent CN113603779A
